Experimental data reported in US8440592B2, “Use of abscisic acid combinations for thinning” (Valent BioSciences Corporation, priority 2007, dated 2013).

Tested on: grape and apple
Experiment: Leaf drop and phytotoxic burns in the grape and apple thinning examples
Type: in vivo
Conditions: ABA added to standard thinning treatments (GA3, BA)

**Q.** “(S)-5-(1-hydroxy-2,6,6,-trimethyl-4-oxo-2-cyclohexen-1-yl)-3-methyl-(2Z,4E)-pentadienoic acid [ABA]” was tested. Which “Leaf drop or phytotoxic burns” value did it give?
**A.** without inducing leaf drop or causing phytotoxic burns
